Antibody variant affinities, Ab-14 heavy chain, assay B

From the AlphaSeq antibody data of Li et al. 2023 (doi:10.1038/s41467-023-39022-2), copy in the FLAb collection.

Antigen: PDVDLGDISGINAS, a 14-residue peptide of the SARS-CoV-2 spike HR2 region.

The variants keep the light chain, the linker and the frameworks of Ab-14 (scFv order VH, three GGGGS repeats, VL).
VH: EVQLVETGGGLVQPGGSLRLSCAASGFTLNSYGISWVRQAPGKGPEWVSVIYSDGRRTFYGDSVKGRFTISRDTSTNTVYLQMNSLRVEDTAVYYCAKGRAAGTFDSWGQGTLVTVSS
VL: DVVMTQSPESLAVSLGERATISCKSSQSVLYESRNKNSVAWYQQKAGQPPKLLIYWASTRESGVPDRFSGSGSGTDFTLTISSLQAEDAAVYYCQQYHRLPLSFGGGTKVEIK

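Phage display of a naive human antibody library on the peptide gave the parent. This is the validation round: designs drawn from the data on random variants, tested in the same kind of assay. Group labels follow the data file (Ctrl: baseline library sampled from a position-specific scoring matrix, with some repeated check sequences; Rand: our label for a block that the file lists under HC and that is probably the random mutants of the ten best first-round binders; En: ensemble of fine-tuned language models; GP: Gaussian process model; GPLM: also part of the Gaussian process libraries; HC: hill climbing; Gen: genetic algorithm; Gibbs: Gibbs sampling; a sequence that several methods proposed may carry one label only). The assay is AlphaSeq: two haploid yeast populations carry antibody and antigen on their surface. The frequency of each diploid, read from paired DNA barcodes, reflects how well the two displayed proteins bind. Read counts were normalised to the haploid input and turned into Kd by a linear fit to BCL2-family pairs of known affinity, for each replicate. Mating was done six times.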

The parent's heavy chain CDRs are GFTLNSYGIS, VIYSDGRRTFYGDSVK, GRAAGTFDS; each variant's own CDRs replace them letter for letter.
Affinities are written as log10 Kd with Kd in nM; a lower number is a better binder.
A mean of the replicates is given; it leaves out those without a signal.
"not detected" marks a missing value. The strain was present, yet no cells mated with the target were sequenced in any replicate, which points to weak or no binding.
The range of this assay differs from that of the first round, and the authors advise against merging the two.

| log10 Kd (nM), mean | seen in | empty controls | CDR-H1 | CDR-H2 | CDR-H3 | group |
|---|---|---|---|---|---|---|
| 1.88 | 6/6 | 0/18 | GFQLNSYGIS | VIYSDGRRTFYSDSVK | GHAGGTFDS | GPLM_HC |
| not detected | 0/6 | 0/18 | GFTLNSYGIS | VIYSDGVRTMYGDSVK | HRLALTFDS | Ctrl |
| 2.62 | 1/6 | 0/18 | GFWLNSYGIS | VIYSDGRRTFYGDSVK | GRWAGTFDS | Ctrl |
| 0.55 | 6/6 | 0/18 | GFSLNEYGIS | VIYSDGRRTWYGDSVK | GQAAGTFDS | GPLM_Gen |
| not detected | 0/6 | 0/18 | GFDLNEYGIS | VIYADGIREHYKDSVK | GVVFGNVLF | En_Gibbs |
| -0.20 | 6/6 | 0/18 | GFDINEYGIS | VIYADGMRTFYTDSVK | GGNAGTFDV | En_HC |
| 0.69 | 1/6 | 1/18 | GFSLQEYGVS | VIYADGIRTQYTNDVK | GLYSGAFVM | En_Gibbs |
| 0.70 | 6/6 | 0/18 | GFSLNSYGIS | VIYSDGLRTFYQDSVK | GRAAGTFDS | Ctrl |
| not detected | 0/6 | 0/18 | GFTLNEYGAS | VIYSDTRRTFYGRSVK | GRAAVTFDQ | Rand |
| not detected | 0/6 | 0/18 | GPSLDEYGIS | VIYADGVRQQYADDVK | GQIGNFVNY | En_Gibbs |
| 0.63 | 6/6 | 1/18 | GFWLNEYGIS | VIYSDGRRTFYTDSVK | GREAGTFDV | GP_HC |
| 1.65 | 3/6 | 0/18 | GFDLNEYGIS | VIYADGRRTFYADSVK | GNNAGTFIQ | En_HC |
| 0.51 | 6/6 | 0/18 | GFQLNSYGIS | VIYSDGRRTFYADSVK | GRVAGTFDS | GPLM_Gen |
| -0.42 | 6/6 | 0/18 | GFDLNEYGIS | VIYADGKRTAYADDVK | GNTAGTFDQ | En_Gen |
| 1.53 | 1/6 | 0/18 | GFNLNSYGIS | VIYADMRRTFYGDSVK | GRAAGTFDS | GP_HC |
| 0.01 | 6/6 | 0/18 | GFDLNEYGIS | VIYADGKRTAYAESVK | GNVAGTFDL | En_Gen |
| 0.77 | 1/6 | 0/18 | YFELNSYGIS | VIYSDGRRTFYADSVK | GRTAGTFDS | GPLM_Gen |
| 1.05 | 3/6 | 0/18 | GFTLSSYGIS | VIYSDGRRTFYGDSVK | GDNAGTFDS | Ctrl |
| -0.13 | 6/6 | 1/18 | GFDLDEYGIS | VIYADGMRTFYADSVK | GEIAGTFDV | En_HC |
| not detected | 0/6 | 0/18 | GFTLNSEGIS | VIYRDGRRTFYADSVK | GRAAKTFDS | Ctrl |
| 2.84 | 2/6 | 0/18 | KFNLNSYGIS | VIYSDGRRTFYIDSVK | GRMAGTFDS | GP_Gibbs |
| 0.71 | 6/6 | 0/18 | GFDLNEYGIS | VIYADGRRTFYSDSVK | GGNGGTFDI | En_HC |
| 2.24 | 1/6 | 1/18 | GFDLNEYGIS | VIYADGRRTFYSDSVK | GENAGFFDK | En_HC |
| 1.08 | 6/6 | 0/18 | GFTLNSYGIS | VIYSDGRRTFYEDSVK | GQTAGTFDS | GP_HC |
| 0.18 | 6/6 | 0/18 | GFDLNEYGIS | VIYADGKRTFYADSVK | GEVAGTFDL | En_Gen |
| -0.36 | 6/6 | 0/18 | GFDLEDYGIS | VIYADGRRTFYADSVK | GNVAGTFVS | En_HC |
| 0.26 | 6/6 | 0/18 | GFELNEYGIS | VIYSDGRRTFYDDSVK | GRFAGTFDS | GP_HC |
| not detected | 0/6 | 0/18 | GFTLNSYGIS | VIYSDGRRTFYGDYVK | GRAAKTDDI | Ctrl |
| -0.34 | 2/6 | 0/18 | GFWLNEYGIS | VIYSDGRRTFYGDSVK | GRTAGTFDL | GP_Gen |
| 0.61 | 6/6 | 0/18 | GFELNSYGIS | VIYSDGRRTFYGDNVK | GQTAGTFDS | GP_Gen |
| -0.19 | 6/6 | 0/18 | GFWLNEYGIS | VIYSDGRRTFYHDSVK | GRAAGTFDS | GP_Gen |
| not detected | 0/6 | 0/18 | KFTLNEYGIS | VIYSDGRRTFYGDSVK | GRVAGTFDS | GP_HC |
| 0.46 | 6/6 | 2/18 | GFTLNSYGIS | VIYSDGVRTFYSDSVK | GRQAGTFDS | GPLM_Gibbs |
| not detected | 0/6 | 1/18 | GFTLNDYGIS | VIYSDGRYTQYIDEVK | GTPAGTFDS | Rand |
| 1.29 | 3/6 | 0/18 | GFNLNSYGIS | VIYSDGRRTFYVDSVK | GRAAGTFDS | GPLM_Gen |
| 0.90 | 6/6 | 0/18 | GFTLNDMGIS | VIYSDGRRTFYGDSVK | GREAGTFDT | Ctrl |
| not detected | 0/6 | 0/18 | GFNLDEYGIS | VIYADGIRAAYQNSVK | GFTPFVVAI | En_Gibbs |
| not detected | 0/6 | 0/18 | GHNLNSYGIS | VIYSDGRRTFYGDSVK | GRAAGTFDS | Ctrl |
| 1.19 | 6/6 | 0/18 | GFTLNSYGIS | VIYSDGMRTFYGDNVK | GRTAGTFDS | GP_Gibbs |
| -0.90 | 6/6 | 0/18 | GFDLNEYGIS | VIYADGRRTFYSDSVK | GTVAGTFDQ | En_HC |
| not detected | 0/6 | 0/18 | GFTLNSYGIS | VIYSDGRRTQYYDSVK | GRSAGTFES | Ctrl |
| 3.81 | 2/6 | 0/18 | GQDINEYGIS | VIYADGLRQAYSENVK | GNINQFDAV | En_Gibbs |
| -0.49 | 6/6 | 0/18 | GFDLDEYGIS | VIYADGMRTAYSDSVK | GENAGTFDT | En_Gen |
| 0.14 | 6/6 | 0/18 | GFDLDEYGIS | VIYADGMRTAYADNVK | GNEAGTFDV | En_Gen |
| 2.83 | 1/6 | 0/18 | GFDLTEYGIS | VIYADGQRQEYSDDVK | GQTAGHFLH | En_Gibbs |
| -0.43 | 6/6 | 0/18 | GFNLDEYGIS | VIYADGRRTFYADSVK | GETAGTFDV | En_HC |
| not detected | 0/6 | 0/18 | GFDLGEYGIS | VIYADGRRKAYSDAVK | GINVYGKTV | En_Gibbs |
| -0.48 | 6/6 | 0/18 | GFNLEDYGIS | VIYADGRRTFYVDSVK | GEVAGTFDV | En_HC |
| -0.26 | 6/6 | 0/18 | GFDLDEYGIS | VIYADGMRTAYVDSVK | GQNAGTFDV | En_Gen |
| -1.07 | 6/6 | 0/18 | GFDLNEYGIS | VIYADGRRTFYADSVK | GNLAGTFNV | En_HC |
| 1.58 | 3/6 | 0/18 | GFTLNSYGIS | VIYSDGRRTFYHDSVD | GRAAGTFDS | Ctrl |
| 0.13 | 6/6 | 0/18 | GFDLNEYGIS | VIYADGRRTAYADSVK | GNNAGTFDQ | En_Gen |
| 0.73 | 6/6 | 0/18 | GFELNEYGIS | VIYSDGRRTFYGDSVK | GKEAGTFDS | GP_Gen |
| 0.15 | 6/6 | 0/18 | GFDLNEYGIS | VIYADGMRTSYKDSVK | GEAAGTFDV | En_HC |
| -0.03 | 6/6 | 0/18 | GFDLNEYGIS | VIYADGMRTFYADSVK | GEYAGTFDI | En_HC |

Extract of 5 entries:

CDR-H1	CDR-H2	CDR-H3	group	log10 Kd (nM), mean	seen in	empty controls
GFELNSYGIS	VIYSDGRRTFYGDNVK	GQTAGTFDS	GP_Gen	0.61	6/6	0/18
GFELNEYGIS	VIYSDGRRTFYGDSVK	GKEAGTFDS	GP_Gen	0.73	6/6	0/18
GFTLNSYGIS	VIYSDGRRTQYYDSVK	GRSAGTFES	Ctrl	not detected	0/6	0/18
GFWLNEYGIS	VIYSDGRRTFYHDSVK	GRAAGTFDS	GP_Gen	-0.19	6/6	0/18
GFTLNSYGIS	VIYSDGRRTFYGDYVK	GRAAKTDDI	Ctrl	not detected	0/6	0/18

As a blank, each scFv also met three strains without target: over all heavy chain designs, 1% of these pairings were detected, typically at 2.08 and seldom below 0.84. The control count says in how many pairings with the empty strains this scFv gave a signal.
The parent sequence was in this pool as ten entries: three were never detected, three once, and four in most replicates, with averages from 0.34 to 2.37.
The authors averaged sequences with at least three values out of six and counted those with two or fewer as poor binders.